Nrf2 ARE act: activators of Nrf2 (ARE) signaling; AREc32 ARE-luciferase reporter (MCF7-derived line), luminescence, 24 h; 0.31% of 410,000 active; Potency, µM (series often up to 46.1 µM), inactives show top-dose activation, hits mostly activators; further: potency means the concentration at half of the fitted maximal effect; % of control where 0% means no effect; nearly all actives have a fitted effect of over 65% in size
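Cells of the AREc32 ARE-luciferase line are plated in OPTI-MEM containing 5% FBS and left overnight at 37 deg C. Compounds are pinned in, incubation continues 24 hr, and firefly luciferase signal is then measured.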
A549 tox: kills or reduces viability of A549 cells in Nrf2 counter-screen; A549 ARE-Fluc cells, CellTiter-Fluor viability, 18-24 h; Potency, µM (highest dose often 46 µM), for the others: top-dose activity change, negative = cytotoxicity, most hits filed as inhibitors; 0.16% of 390,000 active; further: potency means the concentration at half of the fitted maximal effect; on the % scale 0 is the no-effect control and ±100 the full control effect
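A549 ARE_Fluc cells in 5% FBS OPTI-MEM were exposed to compounds in concentration-response for 18-24 h at 37 deg C. Viability was read by CellTiter-Fluor fluorescence (Ex 405/Em 525) after 30 min, before the luciferase read.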
TSG101-PTAP inh: blocks PTAP/TSG101 interaction to inhibit HIV-1 budding; AID 493005; 340,000 tested, under 10 active; Potency, µM (highest dose often 115 µM), for inactives: top-dose activity change, negative = inhibition, actives largely listed as inhibitors; Q99816; Fluorescence polarization, FITC-PTAP peptide / Tsg101 binding; active means well fitted inhibition curve with a large enough effect in the main read-out, with a control signal flat, not every such curve was filed as active; inconclusive means small, poorly fitted or top-dose-only effect, or effect the other way, or a change in a side signal; inactive means no such curve, though single readings can be large or run the other way; further: potency means the concentration at half of the fitted maximal effect; % of control where 0% means no effect
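Compounds were pin-transferred onto Tsg101 binding domain (10 uM final) in HEPES pH 7.5 buffer, then FITC-PTAP peptide was added at 50 nM final. After 20 min at RT, polarization reported peptide displacement across a qHTS concentration series.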
Nrf2 inh: Nrf2 pathway inhibition. AID 504444. A549 ARE-Fluc reporter, luciferase luminescence, 18-24 h. 2.1% of 360,000 active. Potency, µM (top dose mostly 46 µM), without a hit: top-dose activity change, negative = inhibition, actives largely listed as inhibitors; further: potency means the concentration at half of the fitted maximal effect; on the % scale 0 is the no-effect control and ±100 the full control effect; nearly all actives have a fitted effect of over 60% in size
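Concentration-response testing used A549 ARE_Fluc cells at 5000 cells/well. Following an 18-24 h compound incubation, viability was read by fluorescence (Ex 405/Em 525) and luciferase output by luminescence.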
miR-21 reporter: raises the signal of a miR-21 reporter | HeLa miR-21 FLuc reporter, luciferase, 48 h | Potency, µM (highest dose often 38.3 µM), inactives show at the highest dose reporter change, positive = more light | 340,000 tested, under 10 active | AID 2288; active = well fitted rising curve with a large enough effect; inconclusive = small, poorly fitted or top-dose-only effect; inactive = no such curve, though single readings can be large or run the other way;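 note: % of control where 0% means no effect; miR-21 action dims this reporter so a rising signal means less miR-21 action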
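HeLa cells endogenously expressing miR-21, stably carrying CMV-driven firefly luciferase with a downstream miR-21 binding site, 2000 cells/well. Titrations up to approximately 40 uM, 48 hours; luciferase luminescence read.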
GRP78 ERSR act: ER stress response induction in glioma | U87-MG GRP78 promoter luciferase reporter, 16 h | Potency, µM, for the others: at the highest dose activation, actives largely listed as activators | 0.02% of 420,000 active; further: potency means the concentration at half of the fitted maximal effect; series mostly up to about 76 µM; % of control where 0% means no effect; nearly all actives have a fitted effect of over 35% in size
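ERSR induction read as luciferase luminescence (Bright-Glo, 10 min at room temperature) in stably transfected human U87-MG glioma cells exposed to compounds for 16 h, using GRP78 as sensor.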
An asterisk follows results filed as active; ? = inconclusive; . = not tested or not shown; [ ] = another dose, or the depositor's remark. Sampled rows, rich in hits. Any-hit rate of the full collection: about 2.1%. Unless noted, the call rests on the fitted dose curve; in most records, active means well fitted curve in the direction sought with a large enough effect; inconclusive means small, poorly fitted or top-dose-only effect, or another doubt; inactive means no such curve, though single readings can be large; an effect the other way counts as inactive or inconclusive.

SMILES	Nrf2 ARE act	A549 tox	TSG101-PTAP inh	Nrf2 inh	miR-21 reporter	GRP78 ERSR act
CSc1ccc(/C=C2\C=Cc3cc([N+](=O)[O-])ccc32)cc1	.	.	.	.	.	-2.4%
Cc1ccc(CNc2ncnc3sc(C(=O)N4CCC[C@H]4C(N)=O)c(C)c23)o1	.	.	.	.	.	-5.7%
O=c1c2ccccc2nc(SCc2nnc(-c3ccccc3Br)o2)n1-c1ccccc1	-0.6%	-22.6%	-9.9%	10.3µM*	-23.2%	5.3%
CCOC(=O)NC(=O)COC(=O)CCCSc1nc2ccccc2s1	-2.0%	-10.0%	-1.0%	18.4µM*	14.5%	-8.4%
NC(=O)NC(=O)COC(=O)CCCSc1nc2ccccc2s1	-2.1%	-0.6%	-5.3%	?	20.2%	-16.2%
O=C(O)CCSc1nc2ccccc2s1	-1.7%	0.5%	.	13µM*	?	-13.8%
Cc1nc(SCC(=O)Nc2ccc(S(=O)(=O)N3CCOCC3)cc2)c2c(C)c(C)sc2n1	-0.3%	?	3.4%	11.6µM*	.	-5.2%
Cc1ccc(S(=O)(=O)N2CCN(CC(=O)Nc3ccc(N4CCOCC4)cc3)CC2)cc1C	0.0%	0.6%	-3.0%	-3.4%	-9.8%	-4.8%
Cc1cccc(N2CCN(CC(=O)Nc3nccs3)CC2)c1C	-0.2%	-23.1%	-5.3%	16.4µM*	4.0%	-4.4%
Cc1cccc(N2CCN(CC(=O)Nc3ccc(S(=O)(=O)N4CCOCC4)cc3)CC2)c1C	0.5%	-14.4%	-3.0%	16.4µM*	21.7%	-3.8%
Fc1ccc(NC(=S)Nc2ccc(Br)cc2)cc1	2.5%	?	0.3%	18.4µM*	22.6%	-3.1%
Cc1cc(I)ccc1Nc1nc(NCCN2CCOCC2)nc(N2CCOCC2)n1	.	.	.	.	.	-1.7%
CCOc1ccc(C(=O)C2CCN(CC(=O)Nc3ccccc3N3CCOCC3)CC2)cc1	1.7%	-13.8%[1.84 µM]	-2.2%	11.6µM*	-3.2%	0.3%
COC(=O)C1CCN(Cc2ccc3c(c2)CN(C(=O)c2sc(C)nc2C)CCO3)CC1	.	.	.	.	.	-4.6%
CCNc1ccc2noc3c2c1C(=O)c1ccccc1-3	4.6%	?	?	20.6µM*	-0.4%	-2.0%
CC(C)(C)n1ncc2c(=O)n(Cc3ccccc3F)cnc21	.	.	.	.	.	-3.3%
COc1ccc(/C=C2/CCCC(CN(C)C)C2=O)cc1 (configuration not stated)	10µM*	-0.1%	0.5%	7.8%	.	7.9%
CCOC(=O)Cn1c(C2CC(=O)N(c3ccc(C)cc3)C2)nc2ccccc21 (configuration not stated)	0.5%	-13.5%	.	20.6µM*	22.5%	-3.0%
CCOc1ccc(N2CC(c3nc4ccccc4n3Cc3cccc(C)c3)CC2=O)cc1 (configuration not stated)	6.9%	-11.4%	.	?	6.0%	-4.2%
COc1ccccc1Cn1c(C2CC(=O)N(c3ccccc3OC)C2)nc2ccccc21 (configuration not stated)	4.0%	-5.0%	.	10.3µM*	26.8%	-2.4%
CCc1ccc(N2CC(c3nc4ccccc4n3Cc3ccccc3C)CC2=O)cc1 (configuration not stated)	0.7%	-7.4%	.	14.6µM*	11.0%	0.0%
CCc1ccccc1N1CC(c2nc3ccccc3n2CCCCOc2ccccc2OC)CC1=O (configuration not stated)	5.2%	?	.	?	?	-4.3%
Cc1ccc(-c2csc3ncnc(Sc4nnnn4C4CC4)c23)cc1	.	.	.	.	.	-2.3%
CC(=O)Nc1ccc(/C=C/C(=O)c2ccc(-n3nncc3-c3ccccc3)cc2)cc1	.	-18.8%	.	?	.	14.9%
CCN(CC)CCNC(=O)c1cc(-c2cccnc2)nc2ccc(S(=O)(=O)N3CCC(C)CC3)cc12	-0.6%	23.1µM*	-6.9%	?	-2.5%	-2.3%
SMILES	Nrf2 ARE act	A549 tox	TSG101-PTAP inh	Nrf2 inh	miR-21 reporter	GRP78 ERSR act
CC(C)N(C(=O)CSc1nc(Cc2ccccc2)nc2ccccc12)C(C)C	1.7%	2.9%	-2.5%	18.4µM*	6.3%	-4.0%
CC(C)(C)NC(=O)CSc1nc(Cc2ccccc2)nc2ccccc12	9.2%	-8.3%	-9.3%	?	-4.6%	-4.2%
COc1ccc(CCNc2oc(-c3ccc(OC)c(OC)c3)nc2C#N)cc1	0.8%	-8.8%	-8.1%	23.1µM*	-21.9%	-0.4%
Cc1ccccc1OCc1ccc(-c2nc(C#N)c(NCc3cccnc3)o2)o1	-0.3%	11.3%	.	11.6µM*	8.4%	-6.6%
COc1ccc(CNc2oc(/C=C/c3cc(OC)c(OC)c(OC)c3)nc2C#N)cc1	11.6%	9.6%	.	-12.5%	5.8%	31.6µM*
COc1ccc(/C=C/c2nc(C#N)c(NCc3ccc(C)cc3)o2)cc1OC	5.1%	-18.3%	.	?	?	-1.2%
COc1ccc(CNc2oc(-c3ccc(COc4ccccc4C)o3)nc2C#N)cc1	0.1%	-0.2%	.	20.6µM*	11.2%	-5.9%
Cc1ccc(OCc2ccc(-c3nc(C#N)c(NCc4cccnc4)o3)o2)cc1	3.8%	-22.7%	.	?	10.5%	-0.3%
COc1ccc(-c2nc(C#N)c(NCCCN(C)C)o2)cc1OC	2.1%	13.8%	26.0%	-2.8%	-20.7%	1.1%
COc1ccc(OCc2ccc(-c3nc(C#N)c(NCc4ccccc4)o3)o2)cc1	6.6%	?	.	?	-9.4%	-2.2%
Cc1cc(C(=O)Nc2cccc(-c3nc(CNC(=O)c4ccccc4C(F)(F)F)c(C)o3)c2)c(C)o1	.	.	.	.	.	-2.0%
Nc1ccc(Cc2ccc(C=O)cc2)cc1	.	.	.	.	.	-3.2%
O=C(Nc1c(O)c2ccccc2[nH]c1=O)c1ccco1	10µM*	1.7%	-4.5%	6.0%	1.6%	17.3%
CCCCCCC(=O)Nc1c(O)c2ccccc2[nH]c1=O	3.2%	-5.1%	-10.8%	?	-1.1%	-4.0%
CCC1CN(Cc2cn[nH]c2-c2ccc(F)cc2)Cc2cc(OC)ccc2O1 (configuration not stated)	.	.	.	.	.	-2.0%
COc1ccc(NC(=S)NC(NC(=O)c2cccc(Cl)c2)C(Cl)(Cl)Cl)c([N+](=O)[O-])c1 (configuration not stated)	10.5%	?	-5.9%	25.9µM*	?	-1.7%
COc1ccc(NC(=S)NC(NC(=O)c2cccc(C)c2)C(Cl)(Cl)Cl)c([N+](=O)[O-])c1 (configuration not stated)	-0.4%	-18.2%	-1.0%	?	0.5%	-10.4%
Nc1ccc2c(c1)C(=O)C(=O)c1ccccc1-2	-3.4%	?	1.9%	.	?	-15.0%
O=C1C(=O)c2ccc(-c3ccccc3)cc2-c2ccccc21	-2.6%	.	-3.4%	20.6µM*	-7.5%	0.8%
Cc1cc(C(=O)Nc2ccccc2-c2nc(CNC(=O)c3cc4ccccc4cn3)c(C)o2)c(C)o1	.	.	.	.	.	-1.9%
Cc1ccc(S(=O)(=O)Nc2cccc3ncccc23)s1	?	?	-6.2%	14.6µM*	?	?

Record cards (already shown). Values in the order: Nrf2 ARE act | A549 tox | TSG101-PTAP inh | Nrf2 inh | miR-21 reporter | GRP78 ERSR act
Cc1ccc(S(=O)(=O)Nc2cccc3ncccc23)s1 reads ? | ? | -6.2% | 14.6µM* | ? | ?
CCC1CN(Cc2cn[nH]c2-c2ccc(F)cc2)Cc2cc(OC)ccc2O1 (configuration not stated) reads . | . | . | . | . | -2.0%
COc1ccc(CCNc2oc(-c3ccc(OC)c(OC)c3)nc2C#N)cc1 reads 0.8% | -8.8% | -8.1% | 23.1µM* | -21.9% | -0.4%
COc1ccc(CNc2oc(/C=C/c3cc(OC)c(OC)c(OC)c3)nc2C#N)cc1 reads 11.6% | 9.6% | . | -12.5% | 5.8% | 31.6µM*
Cc1ccc(OCc2ccc(-c3nc(C#N)c(NCc4cccnc4)o3)o2)cc1 reads 3.8% | -22.7% | . | ? | 10.5% | -0.3%

Screens from PubChem.
